This is an account of results in PubChem BioAssay AID1024 (Sanford-Burnham Center for Chemical Genomics, 2008).

Chains of the proteins cited; added tags and fusions are not shown.
UniProt P11712, whole entry: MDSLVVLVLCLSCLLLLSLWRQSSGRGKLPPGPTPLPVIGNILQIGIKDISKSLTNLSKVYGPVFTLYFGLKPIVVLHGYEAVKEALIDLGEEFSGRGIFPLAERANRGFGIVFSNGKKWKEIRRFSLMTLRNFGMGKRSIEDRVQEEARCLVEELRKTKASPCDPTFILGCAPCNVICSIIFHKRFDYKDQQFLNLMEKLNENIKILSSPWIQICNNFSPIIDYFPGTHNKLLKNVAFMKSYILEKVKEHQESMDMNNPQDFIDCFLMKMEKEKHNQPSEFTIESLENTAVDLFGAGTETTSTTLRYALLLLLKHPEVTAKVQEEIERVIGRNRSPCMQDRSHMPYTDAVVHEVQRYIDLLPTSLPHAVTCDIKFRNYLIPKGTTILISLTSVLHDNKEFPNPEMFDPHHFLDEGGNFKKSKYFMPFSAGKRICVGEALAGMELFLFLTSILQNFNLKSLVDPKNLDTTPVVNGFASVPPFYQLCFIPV

The entries are a selection whose mix differs from that of the whole data set. The source made the active and inactive calls.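 How the source made its calls: active means activation factor of 2 or more for CYP2C9 at a 5 µM dose; inactive means the rest.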

This test addresses Cytochrome P450 2C9 (Homo sapiens) (UniProt P11712). Kind of test: enhancers of cytochrome P450 2C9 turnover – biochemical, luminescence, primary screen (AID 1024).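 Further: 0 = sulfaphenazole-blocked wells and 1 = vehicle-only wells.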 The note with it: recombinant CYP2C9, luciferin-H conversion, at 5 µM, hits give high values, factor 1 = untreated enzyme, 0 = blocked.
Regarding `O=C(NCC1(N2CCOCC2)CCCCC1)c1cc(=O)[nH]c2ccccc12`, the activation factor is inactive: 1.
The figure for `N#CC1(Nc2ccccc2)CCN(CCc2ccccc2)CC1` is inactive: 1; for `COc1ccc(NC2CCN(CCc3ccccc3)CC2)c(OC)c1` it is inactive: 0.9.
The figure for `O=C(NCC1(N2CCOCC2)CCCCC1)c1cc2ccccc2o1` is inactive: 0.7; for `O=C(OC1CN2CCC1CC2)C1c2ccccc2Oc2ccccc21` (stereo not given) it is inactive: 1.
The figure for `CCC(CO)(C(=O)OC1CN2CCC1CC2)c1ccccc1` (stereo not given) is inactive: 1.2.
`CCOc1ncccc1C(=O)NCC1(N2CCOCC2)CCCCC1`: the activation factor is inactive: 0.5.
The figure for `Fc1ccccc1NC1CCN(Cc2ccccc2)CC1` is inactive: 0.9; for `c1ccc(CN2CCC(Nc3ccccc3)CC2)cc1` it is inactive: 0.5; for `N/C(=N\O)c1c(N)no[n+]1[O-]` it is inactive: 0.9.
